Laboratory results from article PMC5736936, “Xylopine Induces Oxidative Stress and Causes G2/M Phase Arrest, Triggering Caspase-Mediated Apoptosis by p53-Independent Pathway in HCT116 Cells” (Oxidative Medicine and Cellular Longevity, 2017).

Test system: SCC9 (human oral squamous cell carcinoma)
Assay: Cytotoxic activity, alamarBlue assay, 72 h
Format: cell-based
Details: IC50(PBMC)/IC50(SCC-9)
From the text: MCF7 (human breast carcinoma), HCT116 (human colon carcinoma), HepG2 (human hepatocellular carcinoma), SCC-9 (human oral squamous cell carcinoma), HSC-3 (human oral squamous cell carcinoma), HL-60 (human promyelocytic leukemia), K-562 (human chronic myelogenous leukemia), B16-F10 (murine melanoma), MRC-5 (human lung fibroblast), WT SV40 MEF (wild-type immortalized mouse embryonic fibroblast), and BAD KO SV40 MEF (BAD gene knockout immortalized mouse embryonic fibroblast) cell lines were obtained from the American Type Culture Collection (ATCC, Manassas, VA, USA). Cells were cultured in complete medium with appropriate supplements as recommended by ATCC. All cell lines were tested for mycoplasma using the Mycoplasma Stain Kit (Sigma-Aldrich) to validate the use of cells free from contamination. Primary cell culture of peripheral blood mononuclear cells (PBMC) was obtained by standard Ficoll density protocol. The Research Ethics Committee of the Oswaldo Cruz Foundation (Salvador, BA, Brazil) approved the experimental protocol (number 031019/2013). […]
Cell viability was quantified using the alamarBlue assay according to Ahmed et al.. […] Absorbance at 570 nm and 600 nm was measured using the SpectraMax 190 Microplate Reader (Molecular Devices, Sunnyvale, CA, USA), and the drug effect was quantified as the percentage of control absorbance.

COc1cccc2c1C(=O)c1c(O)c3c(c(O)c1C2=O)C[C@@](O)(C(=O)CO)C[C@@H]3O[C@H]1C[C@H](N)[C@H](O)[C@H](C)O1 [DOX, doxorubicin]
Selectivity index: 10.4
